Measured values as given in patent US9428501B2, “Bicyclic nitrogen-containing aromatic heterocyclic amide compound” (ASTELLAS PHARMA INC., priority 2013, dated 2016).

By UniProt entry, the sequences of proteins in these tests, tags left out. Residues count along the entry.
UniProt O75251, 39-213 limits assumed: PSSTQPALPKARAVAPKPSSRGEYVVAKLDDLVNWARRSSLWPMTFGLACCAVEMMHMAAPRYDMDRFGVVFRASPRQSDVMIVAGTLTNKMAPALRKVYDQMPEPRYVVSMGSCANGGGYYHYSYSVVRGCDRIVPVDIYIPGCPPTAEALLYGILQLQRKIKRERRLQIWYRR
UniProt O75306, 34-463 limits assumed: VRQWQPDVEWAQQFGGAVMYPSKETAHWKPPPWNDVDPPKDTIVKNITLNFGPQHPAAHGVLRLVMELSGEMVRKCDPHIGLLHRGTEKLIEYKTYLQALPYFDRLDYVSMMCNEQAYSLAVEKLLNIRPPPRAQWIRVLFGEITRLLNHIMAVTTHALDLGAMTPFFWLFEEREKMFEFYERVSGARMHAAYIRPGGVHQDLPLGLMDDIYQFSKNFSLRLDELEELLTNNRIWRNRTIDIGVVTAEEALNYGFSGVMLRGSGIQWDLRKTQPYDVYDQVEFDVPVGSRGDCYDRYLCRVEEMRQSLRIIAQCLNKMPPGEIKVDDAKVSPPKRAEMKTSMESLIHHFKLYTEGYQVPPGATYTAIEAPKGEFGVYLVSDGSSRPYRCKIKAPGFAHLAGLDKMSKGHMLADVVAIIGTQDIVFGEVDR
UniProt P03886, whole entry: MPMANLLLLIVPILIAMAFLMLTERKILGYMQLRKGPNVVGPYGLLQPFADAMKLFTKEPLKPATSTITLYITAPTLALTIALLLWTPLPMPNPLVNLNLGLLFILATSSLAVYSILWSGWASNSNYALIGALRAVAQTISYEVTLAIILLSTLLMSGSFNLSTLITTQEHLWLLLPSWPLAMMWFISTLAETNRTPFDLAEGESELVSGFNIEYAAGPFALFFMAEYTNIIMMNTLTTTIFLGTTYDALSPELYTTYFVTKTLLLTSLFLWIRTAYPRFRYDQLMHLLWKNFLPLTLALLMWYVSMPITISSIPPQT

Assays:
[1] = test system: human PIK3CA mutation-positive breast cancer cell line MDA-MB-453 cells; experiment: Scaffold independent cell proliferation inhibitory effect, MDA-MB-453 cells; assay type: cell-based; conditions: 96 h, non-adhesive plate, 4 days, CellTiter-Glo, read-out: IC50 (cell proliferation inhibition)
Procedure: The effect on proliferation of cancer cells of the test compound was evaluated.
Measurement (colony method) of the scaffold independent cell proliferation is known as a system in which the anti-cancer effect of the test compound is examined. As a method for measuring cell-non-adhesive proliferation substituting the colony method, there is a method of using a non-adhesive plate as follows.
Thereafter, the cells were cultured for 4 days at 37° C. in the absence of CO2, and a cytometric reagent (CellTiter-Glo Luminescent Cell Viability assay manufactured by Promega Corporation) was added. The resultant product was stirred for 30 minutes, and then measurement was carried out using a luminescence measurement apparatus (ARVO manufactured by Perkin Elmer Inc.).

[2] = biological target: human mitochondrial Complex I (Homo sapiens, UniProt O75251+O75306+P03886); assay type: biochemical; conditions: mitochondria from MDA-MB-453 tumor, absorbance 600 nm, 37° C.; read-out: IC50 (Complex I inhibition)
Procedure: Mitochondria was extracted from MDA-MB-453 tumor, and the Complex I inhibitory activity of the test compound was evaluated.
Human PIK3CA mutation-positive breast cancer cell line MDA-MB-453 cells were subcutaneously implanted into nude mice, MDA-MB-453 tumor was excised, a mitochondria extraction solution (0.25 M Sucrose, 2 mM EDTA, 10 mM Tris/HCl pH 7.5) of 9 times of tumor weight was added thereto, and crushing was carried out thereon. The reaction mixture was centrifuged at 600×g and 4° C. for 10 minutes to obtain a supernatant, and the supernatant was centrifuged at 14000×g and 4° C. for 10 minutes, thereby obtaining a pellet. The pellet was suspended in 10 mM Tris/HCl pH 7.5 of 5 times of the excised tumor weight, thereby obtaining a human mitochondrial suspension.
Next, 25 μl of the human mitochondrial suspension per 1 ml of Complex I activity measurement solution (200 mM potassium phosphate pH 7.6, 0.35% Bovine Serum Albumin (BSA), 60 μM 2,6-dichlorophenol-indophenol, 70 μM decylubiquinone, 1 μM antimycin) was added. […] Further, NADH was added so as to have a final concentration of 0.2 mM, and a change in absorbance at a wavelength of 600 nm using SpectraMax (manufactured by Molecular Devices LLC) set to 37° C. in advance was measured. […]

Compound	IC50 [1] [nM]	IC50 [2] [nM]
COc1ccc(CN2CCC(c3ccc4nc(C(=O)N5CCN(Cc6ccc(C(F)(F)F)cc6)CC5)n(C)c4c3)CC2)cn1 [Example 18]	2.5	
COc1ccc(CN2CCC(c3ccc4nc(C(=O)N5CCN(Cc6ccc(C(F)(F)F)cc6)CC5)cn4c3)CC2)cn1 [Example 35]	5.2	1.8
COc1ccc(CN2CCC(n3cc4cc(C(=O)N5CCN(Cc6ccc(C(F)(F)F)cc6)CC5)ccc4n3)CC2)cn1 [Example 57]	0.65	12
